Source: patent publication US20240117005A1, “NOVEL BICYCLIC PEPTIDES” (THE COUNCIL OF THE QUEENSLAND INSTITUTE OF MEDICAL RESEARCH, priority 2021, published 2024)

System: MCF-7 cells
Test: RNA-seq differential expression, DL-2 vs. Stimulated
Type: cell-based, human
Details: MCF-7, DL-2 vs. Stimulated (PMA)
Text: RNA-sequencing (RNA seq) data were obtained from human breast cancer cell line MCF-7 with and without DL-2 treatment. A total of 9 samples from […] experimental groups were collected, as follows: • Control (non-stimulated control, Ctrl) (n=3); • Stimulated (PMA stimulated control) (n=3); • DL-2 (treated with DL-2 and stimulated with PMA) (n=3); For the DL-2 treatment group, the MCF-7 cells were exposed to DL-2 first, then stimulated with PMA thereafter. RNA-seq data were generated, fastq data were downloaded to the QIMR Berghofer server, and then archived to the HSM by Scott Wood. Sequence reads were trimmed for adapter sequences using Cutadapt (version 1.9; Martin (2011)) and aligned using STAR (version 2.5.2a; Dobin et al. (2013)) to the GRCh37 assembly with the gene, transcript, and exon features of Ensembl (release 70) gene model. […] In our analysis, we corrected for library size by dividing each sample's gene count by million reads mapped. […] Note that the inputs for DE analysis are the filtered but not normalised read counts, since edgeR performs normalisation (library size and RNA composition) internally. The […]( ) function was used to fit a quasi-likelihood negative binomial generalised log-linear model to the read counts for each gene. […]

SMILES: CCCCCCCCCCCCCC(=O)NC(C)C(=O)NC1CSCc2cc3cc(c2)CSC[C@H](NC(=O)[C@H](Cc2ccccc2)NC(=O)[C@H](C(C)CC)NC(=O)[C@H](Cc2ccccc2)NC(=O)[C@H]([C@@H](C)O)NC(=O)C(CC(C)C)NC1=O)C(=O)N[C@@H](CCCNC(C)=N)C(=O)N[C@@H](CC(C)C)C(=O)N[C@@H](CCCNC(=N)N)C(=O)N[C@@H](CCCCN)C(=O)NCC(=O)N[C@@H](CCCNC(=N)N)C(=O)NC(C(=O)N[C@@H](CCSC)C(=O)NC(CCSC)C(=O)N[C@@H](CC(=O)O)C(=O)NC(C(=O)N[C@@H](CCCCN)C(=O)NC(CCCCN)C(=O)O)C(C)C)CSC3 (mixture of isomers)
- logFC RDX: −0.9705
